Tested on: Epidermal Growth Factor (EGF)

For “Epidermal Growth Factor Receptor Kinase (EGF-RK) isolated from human A 431 carcinoma cells (Messrs. Sigma)”, the “activation of EGF-RK by EGF, read as phosphorylation of Poly-(Glu, Tyr) 4:1 (RIfS)” value was “The use of Epidermal Growth Factor did not confer any recognisable advantage”.

Source: patent US20050026219
